Results taken from patent US20090099250A1, “BENZOCYCLOHEPTENE DERIVATIVES AS ESTROGENS HAVING SELECTIVE ACTIVITY” (priority 2007, published 2009).

Amino acid sequences for entries named in this document (tags omitted). Residues count along the entry.
UniProt Q92731, 223-530, stated change not applied: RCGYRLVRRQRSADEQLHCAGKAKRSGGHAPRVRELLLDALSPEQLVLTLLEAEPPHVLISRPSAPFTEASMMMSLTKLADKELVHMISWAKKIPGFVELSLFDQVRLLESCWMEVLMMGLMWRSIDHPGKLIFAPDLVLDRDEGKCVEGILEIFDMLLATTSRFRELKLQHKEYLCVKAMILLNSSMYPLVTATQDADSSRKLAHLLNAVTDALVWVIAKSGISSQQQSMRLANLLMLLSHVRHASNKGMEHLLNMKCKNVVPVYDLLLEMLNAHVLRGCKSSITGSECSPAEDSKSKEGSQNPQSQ

Target: GAL4-human estrogen receptor β (ERβ) ligand-binding domain chimera (Homo sapiens, UniProt Q92731)
Experiment: GAL4 chimera luciferase reporter assay in CHO K1 cells, ERb
Settings: Table 3

GAL4-assay, Potency at ERb (% of E2): 100.0 % of E2
SMILES: C[C@]12CCC3c4ccc(O)cc4CCC3C1CC[C@@H]2O (stereo partly shown) [Estradiol]
